# scFv variants of Ab-14 (heavy chain) against a SARS-CoV-2 spike peptide

Target: peptide PDVDLGDISGINAS, taken from heptad repeat 2 (HR2) of SARS-CoV-2 spike.

Ab-14 is the parent antibody, in scFv form: VH, then a 15-residue (Gly4Ser)3 linker, then VL. The light chain is unchanged in all variants.
VH: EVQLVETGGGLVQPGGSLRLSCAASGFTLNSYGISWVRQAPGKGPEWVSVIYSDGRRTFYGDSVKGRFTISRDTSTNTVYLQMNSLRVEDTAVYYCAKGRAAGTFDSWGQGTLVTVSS
VL: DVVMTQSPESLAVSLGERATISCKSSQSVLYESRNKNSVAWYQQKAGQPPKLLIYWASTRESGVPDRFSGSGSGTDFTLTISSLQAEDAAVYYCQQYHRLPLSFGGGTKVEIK

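These sequences belong to a second round, designed from the earlier measurements on random variants of the parent. Their group label is 14H_En_Gibbs (En: ensemble of fine-tuned language models; Gibbs: Gibbs sampling). The scFvs were displayed on barcoded MATa yeast, the peptide on MATalpha yeast. After mating in shaken culture at 30 °C for 16 h, diploids were selected and their barcode pairs sequenced. The ratio of observed to expected reads was calibrated, replicate by replicate, on BCL2-family standards whose Kd was known from biolayer interferometry. The assay was run in six technical replicates.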

The parent's heavy chain CDRs are GFTLNSYGIS, VIYSDGRRTFYGDSVK, GRAAGTFDS; each variant's own CDRs replace them letter for letter. Values are log10 of the apparent Kd in nM; lower means stronger binding. Where no diploid with the target was found in that replicate, the entry reads "nd": below detection, most likely a poor binder, though not proof of it.

For GKDLEEYGIS | VIYADGRRTAYIENVK | DGLNDGLDV, the assay gave nd, nd, nd, nd, nd, nd (controls 0 of 18).
For GPSLDEYGIS | VIYADGMRTAYTDSVK | GLFAATFVD, the assay gave nd, nd, nd, nd, nd, nd (controls 0 of 18).
For GFDLEEFGIS | VIYADGMRTYYSDAVK | GTFSGLVSV, the assay gave nd, nd, nd, nd, nd, nd (controls 1 of 18).
For GFNLQEYGIS | VMYADGSRVVYQDKVK | GFDAGTFDT, the assay gave 2.18, 2.14, 2.18, 2.50, 2.07, 2.47 (controls 1 of 18).
For GFTIGEYGIS | VIYADGERTMYSNAVK | GNMAGTFSF, the assay gave nd, 1.68, 1.38, nd, nd, 2.18 (controls 0 of 18).
For GFSFNEYGIS | VIYADGKRQAYANTVK | GGKDAAFDI, the assay gave nd, nd, nd, nd, nd, nd (controls 0 of 18).
For GFNLEEYGIS | VIYADGKRTFYIDGVK | GTWYVFGLG, the assay gave nd, nd, nd, nd, nd, nd (controls 0 of 18).
For GFSLDEYGIS | VIYADGRRTMYCDKFK | GELGCTFVG, the assay gave nd, nd, nd, 0.23, nd, nd (controls 0 of 18).
For GMDLEEYGIS | VIYADGVRVRYSNDVK | GQVDGILVV, the assay gave nd, nd, nd, nd, nd, nd (controls 0 of 18).
For KDDLEAYGIS | VIYADGQRAAYVDKVK | GQTGGMFDQ, the assay gave nd, nd, nd, nd, nd, 2.19 (controls 0 of 18).
For GFNLEEYGIS | VIYADGKRTKYSDNVK | GHIGNVRVV, the assay gave nd, nd, nd, 2.88, nd, nd (controls 0 of 18).
For GFDLEKYGIS | VIYADGKRVAYTDDVK | GGTGGMLMS, the assay gave nd, nd, nd, nd, 2.65, nd (controls 0 of 18).
For GFDLQEYGIS | VIYADGKRTKVTDNVK | GQVTGTAFT, the assay gave nd, nd, nd, nd, nd, nd (controls 0 of 18).
For GGNLDEYGIS | VIYADGKRRQYVDNVK | GSHADAFDM, the assay gave nd, nd, nd, nd, nd, nd (controls 0 of 18).
For GFVFDEYGIS | VIYADGKRQYYQDKVK | GENTGNFDT, the assay gave nd, nd, nd, nd, nd, nd (controls 0 of 18).
For GFQLDEYGIS | VIYADGERTHYSNDVK | GTIGGTFQQ, the assay gave nd, nd, nd, nd, nd, nd (controls 0 of 18).
For GESLESYGIS | VIYADGMRTSYTNSVK | GVWAGTFDL, the assay gave 2.45, 2.30, 1.97, 1.91, nd, 2.96 (controls 1 of 18).
For GFTLDEYGIS | VIYADGTRTTYIDDVK | GQMGGNGYV, the assay gave nd, 4.12, nd, nd, nd, nd (controls 0 of 18).
For GFSLDEYGIS | VIYADGRRTQYDDSFK | GTGDFDIEG, the assay gave nd, nd, nd, nd, nd, nd (controls 1 of 18).
For GFSLQDYGIS | VIYADGVRTAYVNAVK | GKWGATILG, the assay gave 0.39, 0.10, 0.20, 0.16, 0.94, 0.47 (controls 1 of 18).
For GFDLEDYGIS | VIYADGKRKAYAQKFK | GRIGGTFVD, the assay gave nd, nd, 0.72, nd, 0.40, nd (controls 0 of 18).
For GFSFNEYGIS | VIYADGKRQFYANTVK | GGKDAAFDI, the assay gave nd, nd, nd, nd, nd, nd (controls 0 of 18).
For GFSLQEYGVS | VIYADGIRTQYTNDVK | GLYSGAFVM, the assay gave nd, nd, nd, 0.69, nd, nd (controls 1 of 18).
For GFDLEDYGIS | VIYADGVRTAYVDNSK | GENGGALYT, the assay gave nd, nd, nd, nd, nd, nd (controls 0 of 18).
For GEDLLEIGIS | VIYADGSRVAYTNAVK | GNLAGVFDL, the assay gave nd, nd, nd, nd, nd, nd (controls 0 of 18).
For GFDIQDYGIS | VIYADGSRTAYTNSVK | GEQGASYDL, the assay gave nd, nd, nd, nd, nd, nd (controls 0 of 18).
For GFGIDEYGIS | VIYADGQRKMYQDNVK | GNVGSLGSD, the assay gave -0.44, 0.10, 0.28, -0.35, 0.35, 0.76 (controls 0 of 18).
For GFEIQEFGIS | VIYADGRRTAYAENVK | GTLGGTFDT, the assay gave 0.63, 0.18, 0.01, 0.02, 0.27, 0.09 (controls 0 of 18).
For GFDLNEMGIH | VIYADGIRTVVSNDVK | GNVAGTIDV, the assay gave -0.43, -0.13, -0.67, -1.04, -1.03, -0.85 (controls 0 of 18).
For GQDLNEYGIS | VIYADGLRTAYTNNVK | GNQSGFDEG, the assay gave -0.11, 0.04, -0.49, -0.38, -0.49, -0.05 (controls 0 of 18).
For GFNLDEYGIS | VIYADGRRTAYAESVK | NSVMSGRVT, the assay gave nd, nd, nd, nd, nd, nd (controls 0 of 18).
For GESLNEYGIS | VIYADGLRSKYADKFK | GQLAGYFDV, the assay gave nd, nd, nd, nd, nd, nd (controls 0 of 18).
For GFDVNEYGIS | VIYADGRRTQYTQAVK | GKNNMVLFV, the assay gave nd, nd, nd, nd, nd, nd (controls 0 of 18).
For GADINEYGIS | VIYADGRSTYYANSFK | GHNAGTFNS, the assay gave nd, nd, nd, nd, nd, nd (controls 0 of 18).
For GFDLEEMGVS | VIYHDGIRTAYKQKVK | GQFAGTFDL, the assay gave nd, nd, nd, nd, nd, nd (controls 0 of 18).
For GFDIEEYGIS | VIYADGMRTVYSDSFK | SGRTVNIDV, the assay gave nd, nd, nd, nd, nd, nd (controls 0 of 18).
For GFDLQEYGIS | VIFADGLRSAYSDKVK | GQLMGYFSV, the assay gave nd, nd, nd, nd, nd, nd (controls 0 of 18).
For GFSLGEYGIS | VIYADGVRQSYADKVK | GANGAFSLV, the assay gave nd, nd, nd, nd, nd, nd (controls 1 of 18).
For GFNLAEYGIS | VIYADGRRVAYANAVK | GKNGMNFSF, the assay gave nd, 2.99, nd, 2.99, nd, nd (controls 0 of 18).
For GYDLVEYGIS | VIYADGQRTMYADTVK | GHHGGIIDV, the assay gave nd, nd, nd, nd, nd, nd (controls 0 of 18).

Picked from the list: the 2 lowest averages where every replicate gave a value.

| CDR-H1 | CDR-H2 | CDR-H3 | replicates, log10 nM | control signals |
|---|---|---|---|---|
| GFDLNEMGIH | VIYADGIRTVVSNDVK | GNVAGTIDV | -0.43, -0.13, -0.67, -1.04, -1.03, -0.85 | 0/18 |
| GQDLNEYGIS | VIYADGLRTAYTNNVK | GNQSGFDEG | -0.11, 0.04, -0.49, -0.38, -0.49, -0.05 | 0/18 |

The range of this assay differs from that of the first round, and the authors advise against merging the two. Three control strains display no target. For all heavy chain designs, 1% of the pairings with them gave a signal, with a median of 2.08 and one signal in twenty below 0.84, so weak values seen in few replicates may be background. For each scFv, signals with the empty controls are counted beside the result. The parent sequence was in this pool as ten entries: three were never detected, three once, and four in most replicates, with averages from 0.34 to 2.37. In the paper, a design with two or fewer of six values counts as a poor binder.

The measurements come from Li et al. 2023 (doi:10.1038/s41467-023-39022-2) through the FLAb antibody collection.